# In paper PMC7030922:
# Some of the results follow.
# Target: Sodium/potassium-transporting ATPase subunit alpha-1 (UniProt Q8VDN2)
# Assay: cross-link between two proteins; cross-linking mass spectrometry
substance,measurement,value
"Proline-rich transmembrane protein 2, E9PUL5",listed as a hit,yes
